Data reported in PubChem BioAssay AID1688 (National Center for Advancing Translational Sciences (NCATS), 2009).
Hit rate of the full screen: of about 220,000 compounds, about 2,400 (1.1%) were called active. Listed are the inconclusive results; actives and inactives stand elsewhere. The call rests on the fitted dose curve; in most records, active means well fitted inhibition curve with a large enough effect; inconclusive means small, poorly fitted or top-dose-only effect, or effect the other way; inactive means no such curve, though single readings can be large or run the other way.

assay: qHTS Multiplex Assay to Identify Dual Action Probes in a Cell Model of Huntington: Aggregate Formation (GFP); conditions: PC12 HttQ103-GFP aggregates, Acumen cytometry, 40 h; further: nearly all actives have a fitted effect of over 60% in size
Potency means the concentration at half of the fitted maximal effect.

SMILES | Potency
Cc1c2c(nc3ccccc13)SC(C(Cl)Cl)C2 (stereo unspecified) | inconclusive: 20 µM
O=[N+]([O-])c1cc([N+](=O)[O-])c(-c2ccn[nH]2)s1 | inconclusive: 25.1 µM
ClCCSc1nnc(-c2cccnc2)o1 | inconclusive: 25.1 µM
Cc1ccc(NCCc2c([N+](=O)[O-])cc([N+](=O)[O-])cc2[N+](=O)[O-])cc1 | inconclusive: 12.6 µM
O=P1(Nc2ccc(Br)cn2)COc2ccccc2OC1 | inconclusive: 5.62 µM
Cc1c2non([O-])c-2c(C)[n+](=O)[n+]1[O-] | inconclusive: 35.5 µM
CN1CCCC(OC(=O)C(c2ccccc2)c2ccccc2)C1 (stereo unspecified) | inconclusive: 35.5 µM
CN(C)C(=O)OCCc1n(C)cc[n+]1C | inconclusive: 200 µM
CCN(/C(=N/P(=O)(N1CCOCC1)N1CCOCC1)N1CCOCC1)c1ccc(OC)cc1 | inconclusive: 3.16 µM
O=[N+]([O-])c1cc([N+](=O)[O-])c(CCNc2ccccc2)c([N+](=O)[O-])c1 | inconclusive: 35.5 µM
COc1ccc(C2=NCC(CBr)S2)cc1 (stereo unspecified) | inconclusive: 0.112 µM
